Source: publication PMC6582486, “Stapled EGFR peptide reduces inflammatory breast cancer and inhibits additional HER-driven models of cancer” (Journal of Translational Medicine, 2019)

Experiments:
[1] = test system: BT474 clone 5 (Trastuzumab-resistant) breast cancer cells; assay type: cell-based; conditions: 3 days, doses from 2.5 µg/mL
Description: (§1) Fig. 1 Hydrocarbon stapling leads to increased EJ1 activity in comparison to HER-directed monoclonal therapies. a EJ1 sequence with PTD4 domain (underlined) corresponding to EGFR juxtamembrane domain sequence 643–663. Stabilized alpha helix (SAH) variations 1–5 beneath, with asterisks (*) indicating sites of staple. Control peptide (CP) with altered residues indicated by double underline. Stapled control (5) asterisks (*) indicate sites of staple. b Cartoon representation of EJ1 structure, with staple variation 5 highlighted. Positively charged residues indicated in blue, negatively charged residues in red. c Cartoon representation of CP structure, with staple variation highlighted. d Cell viability assay performed in MDA-MB-468 cells after 24 h comparing unstapled EJ1 versus staple variations SAH1, SAH4, and SAH5, with increasing concentrations. e Visualization of MDA-MB-468 cells untreated, treated with 10 µM EJ1, and 10 µM SAH5-EJ1 after 60 min. Scale bars represent 50 µm. f–h Cell viability assay performed in MDA-MB-468, MCF10A, or CHO cells over 3 days comparing treatment with Sapitinib (blue lines), SAH5-EJ1 (red lines), and SAH5-CP (grey lines). […] Absorbance was read at 540 nm by plate reader (uQuant, Bio-Tek Instruments). P-values were calculated from a one-way ANOVA.

[2] = test system: BT474 breast cancer cells, Trastuzumab-sensitive (Parental); assay type: cell-based; conditions: 3 days of treatment, doses from 2.5 µg/mL
Description: as §1

“Trastuzumab: anti-HER2 monoclonal antibody” was tested. Which cell survival [1] did it give?
The cell survival was “approximately 50%”.

And the cell survival [2]?
Its cell survival is “approximately 25%”.
